The record followed here is paper PMC2248166, “Quantitative peptide binding motifs for 19 human and mouse MHC class I molecules derived using positional scanning combinatorial peptide libraries” (Immunome Research, 2008).

Sequences of proteins named here, by UniProt entry; tags and fusion partners are left off. A change or cut given only in a name is not applied to a line headed by its entry.
UniProt P01889: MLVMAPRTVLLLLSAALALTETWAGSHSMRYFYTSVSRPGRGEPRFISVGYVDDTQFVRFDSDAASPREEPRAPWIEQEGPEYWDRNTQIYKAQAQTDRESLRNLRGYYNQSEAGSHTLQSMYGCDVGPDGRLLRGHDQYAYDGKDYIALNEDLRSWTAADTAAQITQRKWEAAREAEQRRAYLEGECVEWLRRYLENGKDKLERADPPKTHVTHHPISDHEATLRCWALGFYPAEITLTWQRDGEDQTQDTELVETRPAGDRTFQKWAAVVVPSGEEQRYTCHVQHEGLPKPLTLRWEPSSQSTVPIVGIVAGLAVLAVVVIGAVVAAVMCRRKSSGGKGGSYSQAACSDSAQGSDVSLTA

The assay concerns the target HLA B*0801 (Homo sapiens, UniProt P01889, A93T/A95T/D138N/E176V/E187T/K202T/Q94N/R180D/S35A/V36M/Y33D/Y91F). In words: biochemical. Format: binding.

Each structure is given as a SMILES string.

Consider `CC(C)C[C@H](NC(=O)[C@H](CO)NC(=O)[C@H](Cc1c[nH]cn1)NC(=O)[C@@H](NC(=O)[C@H](Cc1ccc(O)cc1)NC(=O)[C@H](Cc1ccc(O)cc1)NC(=O)[C@H](CC(C)C)NC(=O)[C@H](C)NC(=O)[C@@H](N)CCC(=O)O)C(C)C)C(=O)O` [3102.0715], for which the IC50 was 2.1 nM. This counts as single-digit nanomolar.
